# High-throughput results: PubChem BioAssay, Broad Institute
# This is a sample that favours compounds with a hit; in the whole collection about 1.9% have one here.
# ARNT-TACC3 inh = disruptors of ARNT/TACC3 protein interaction, primary screen, biochemical, AlphaScreen, single concentration; Transforming acidic coiled-coil-containing protein 3 (Homo sapiens), Q9Y6A5; inhibition, % at 9.99 µM; 0.66% of 390,000 active; AlphaScreen His-ARNT PAS-B/GST-TACC3 binding, luminescence; TACC3 fragment carries E629A point mutation;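 active = mean inhibition of replicates at least 50% and at least half of replicates each reaching 50%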;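 also: 0% = complete ARNT plus TACC3 wells and 100% = ARNT alone without TACC3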
# PDI turbidity = inhibitors of human PDI, primary screen, biochemical, turbidity, single point, plate reader | Protein disulfide-isomerase (Homo sapiens), P07237 | 0.052% of 350,000 active | inhibition, % at 10 µM | PDI insulin aggregation turbidity, A650, 90 min;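 active = mean inhibition across replicates of 30% or more, whatever share of single replicates reach that level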
# FGF22 binding = binders of human FGF22 protein, primary screen, FGF22 synaptogenesis inhibitor project, biophysical, thermal shift, single point; Fibroblast growth factor 22 (Homo sapiens), Q9HCT0; recombinant FGF22 thermal shift, SYPRO orange fluorescence; percent of sucrose octasulfate shift, DMSO zero; activity (Tm shift, normalised), % at 9.99 µM; 1.5% of 340,000 active;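 active = mean Tm shift, scaled 0 neutral to 100 positive control, at about 1.3% or above, every replicate too, limit read from the data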
# PglD inh = C. jejuni PglD acetyltransferase inhibitors, primary screen, biochemical, DTNB colorimetric, single point; AID 602405, 2012; inhibition, % at 12.5 µM; purified PglD enzyme, DTNB colorimetric CoA detection; 0.098% of 360,000 active; in the data active = inhibition above about 16%, passing the limit was not always enough
# ERp5 block = inhibitors of ERp5-driven insulin aggregation, primary screen, biochemical, turbidity, absorbance 650 nm, single point | Protein disulfide-isomerase A6 (Homo sapiens), Q15084 | 90 min | inhibition, % at 9.99 µM | 0.05% of 350,000 active;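 active = mean replicate inhibition above about 25%, with every replicate also reaching it, limit read from the data, passing the limit was not always enough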
# UUG fidelity = modulators of start codon recognition fidelity in yeast. activity score, % at 18.7 µM. S. cerevisiae UUG-firefly luciferase reporter, luminescence/redox ratio. 350,000 compounds, 0.13% hits;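 active means replicate mean at a twofold rise or more, about +100% in these data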;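 further: firefly luciferase made from a UUG start codon reports start codon fidelity; reporter light over untreated wells divided by growth signal over untreated wells; some hits fall short of that in this replicate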
# Active calls of the source: *; · = not tested or not shown.
(1) O=[N+]([O-])c1ccc(O)c(/C=N/Nc2nn[nH]n2)c1
(2) Oc1ccccc1/C=N/Nc1nn[nH]n1
(3) O=[N+]([O-])c1ccc(O)c(/C=N/Nc2ccc(Cl)nn2)c1
(4) O=S1(=O)N=C(N/N=C/c2cccs2)c2ccccc21
(5) COc1ccc2c3c([nH]c2c1)[C@@H](CO)N(C(=O)c1cccnc1)CC31CCN(Cc2cccnc2)CC1
(6) CCCNC(=O)N1C[C@@H]2[C@H](c3ccccc31)[C@@H](CO)N2Cc1ccc2c(c1)OCO2
(7) CS(=O)(=O)Nc1ccc2c(c1)[C@H]1C[C@H](CC(=O)NCc3ccccc3F)O[C@H](CO)[C@H]1O2
(8) Cc1noc(C)c1NC(=O)N(C)C[C@@H]1Oc2ccc(NC(=O)Nc3ccc(F)cc3)cc2CC(=O)N([C@H](C)CO)C[C@H]1C

By UniProt entry, the sequences of proteins in these tests, tags left out.
Protein disulfide-isomerase A6 (Homo sapiens), Q15084, UniProt Q15084, whole entry, looked up: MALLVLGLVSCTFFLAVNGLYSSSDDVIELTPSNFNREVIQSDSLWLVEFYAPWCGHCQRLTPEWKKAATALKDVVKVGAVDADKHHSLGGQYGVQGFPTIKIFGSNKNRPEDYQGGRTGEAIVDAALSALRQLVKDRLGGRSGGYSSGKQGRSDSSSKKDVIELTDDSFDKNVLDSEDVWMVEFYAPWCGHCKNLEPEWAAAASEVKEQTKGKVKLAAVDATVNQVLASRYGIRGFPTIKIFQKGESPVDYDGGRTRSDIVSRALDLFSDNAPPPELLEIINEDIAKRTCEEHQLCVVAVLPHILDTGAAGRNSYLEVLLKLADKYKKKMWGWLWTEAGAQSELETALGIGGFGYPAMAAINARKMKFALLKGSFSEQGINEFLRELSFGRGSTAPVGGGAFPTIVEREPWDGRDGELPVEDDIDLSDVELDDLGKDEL

Compound | 1 | 2 | 3 | 4 | 5 | 6 | 7 | 8
ARNT-TACC3 inh | 67* | 72* | 58* | 66* | · | -1 | -7 | ·
PDI turbidity | -4 | 0 | -4 | -5 | · | · | · | ·
FGF22 binding | 0 | 0 | · | · | 0 | 0 | 0 | 0
PglD inh | 0 | · | -2 | 3 | · | 0 | 1 | ·
ERp5 block | -5 | 0 | · | 7 | -3 | -2 | 3 | 3
UUG fidelity | -11 | · | -26 | -28 | · | 7 | -1 | ·

# Reprinted from the part before: 2 compounds, followed by the next part.
(7) CS(=O)(=O)Nc1ccc2c(c1)[C@H]1C[C@H](CC(=O)NCc3ccccc3F)O[C@H](CO)[C@H]1O2
(8) Cc1noc(C)c1NC(=O)N(C)C[C@@H]1Oc2ccc(NC(=O)Nc3ccc(F)cc3)cc2CC(=O)N([C@H](C)CO)C[C@H]1C
(9) CC(C)NC(=O)Nc1ccc2c(c1)C(=O)N([C@H](C)CO)C[C@@H](C)[C@H](CN(C)Cc1ccc3c(c1)OCO3)OCCCC[C@@H](C)O2
(10) C[C@@H]1CN([C@@H](C)CO)C(=O)c2cccc(NC(=O)c3ccc(-c4nccs4)cc3)c2O[C@@H]1CN(C)CC1CC1
(11) Cc1ccc(S(=O)(=O)N/N=C/c2cc([N+](=O)[O-])ccc2O)cc1[N+](=O)[O-]
(12) O=[N+]([O-])c1ccc(O)c(/C=N/NC2=NS(=O)(=O)c3ccccc32)c1
(13) Cc1ccc(S(=O)(=O)N/N=C/c2ccc(O)cc2O)cc1[N+](=O)[O-]
(14) O=[N+]([O-])c1ccc(/C=N/NC2=NS(=O)(=O)c3ccccc32)cc1
(15) O=[N+]([O-])c1ccc(O)c(-c2nn[nH]n2)c1
(16) COc1ccccc1NC(=O)N[C@H]1C=C[C@@H](CC(=O)NCc2ccc(Cl)c(Cl)c2)O[C@H]1CO

Compound | 7 | 8 | 9 | 10 | 11 | 12 | 13 | 14 | 15 | 16
ARNT-TACC3 inh | -7 | · | 4 | -10 | · | 71* | 16 | 3 | 64* | 14
PDI turbidity | · | · | · | · | -2 | -1 | 0 | 0 | -5 | ·
FGF22 binding | 0 | 0 | 0 | 0 | 44* | 0 | 1 | 0 | · | 0
PglD inh | 1 | · | -2 | -7 | · | · | 2 | 2 | 8 | 1
ERp5 block | 3 | 3 | · | -1 | -4 | 0 | -1 | 1 | · | -2
UUG fidelity | -1 | · | -7 | 5 | · | · | -13 | -7 | -26 | 30

(17) N#C[C@H]1[C@H](c2ccccc2C2=CCCCC2)[C@H](CO)N1S(=O)(=O)c1cccc(F)c1
(18) O=C(NNC(=O)c1ccc2ccccc2c1)Nc1ccc(F)cc1
(19) O=C(NP(=O)(N1CCCC1)N1CCCC1)C1=C(N2CCOCC2)/C(=C/c2cccc([N+](=O)[O-])c2)CC1
(20) O=C(N[C@@H]1CC[C@H](CCNS(=O)(=O)c2ccccc2)O[C@H]1CO)c1cccnc1
(21) On1nnc2ccc(C(F)(F)F)cc21
(22) On1nnc2cc(C(F)(F)F)ccc21
(23) CN=c1scc(-c2ccccc2F)n1/N=C/c1ccc[nH]1
(24) CN=c1scc(-c2ccccc2F)n1/N=C/c1ccc(O)c(O)c1O
(25) CC(C)N=c1scc(-c2cccs2)n1/N=C/c1ccc(O)c(O)c1O
(26) CC(C)(C)c1ccc(OCCCNCc2ccccc2)cc1
(27) CCc1cc(OCCCCNCc2ccccc2)ccc1Cl

Compound | 17 | 18 | 19 | 20 | 21 | 22 | 23 | 24 | 25 | 26 | 27
ARNT-TACC3 inh | · | -10 | 4 | 2 | · | -21 | 14 | 53* | 59* | -4 | 1
PDI turbidity | · | 4 | -10 | · | 0 | -8 | 0 | -5 | 16 | -7 | 54*
FGF22 binding | · | 0 | 44* | 0 | 43* | 0 | 0 | 0 | · | · | ·
PglD inh | · | -7 | · | 1 | · | -3 | · | 1 | · | · | -8
ERp5 block | -1 | 26* | 0 | -4 | -6 | 2 | -2 | -2 | · | · | ·
UUG fidelity | · | -20 | -13 | -13 | · | -22 | · | -92 | · | · | -4
